Test results: article PMC7723054
This is one part of the list.

T1: LIN28A (human?, UniProt Q9H9Z2 1-209)
T1 sequence: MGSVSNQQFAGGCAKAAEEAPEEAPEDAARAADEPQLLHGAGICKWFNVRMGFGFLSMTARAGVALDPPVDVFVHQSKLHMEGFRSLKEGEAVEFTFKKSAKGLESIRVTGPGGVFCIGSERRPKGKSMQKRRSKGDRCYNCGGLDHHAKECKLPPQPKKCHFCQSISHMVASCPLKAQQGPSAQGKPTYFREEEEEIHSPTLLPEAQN

T2: CIRBP (Homo sapiens, UniProt Q14011 1-172)
T2 sequence: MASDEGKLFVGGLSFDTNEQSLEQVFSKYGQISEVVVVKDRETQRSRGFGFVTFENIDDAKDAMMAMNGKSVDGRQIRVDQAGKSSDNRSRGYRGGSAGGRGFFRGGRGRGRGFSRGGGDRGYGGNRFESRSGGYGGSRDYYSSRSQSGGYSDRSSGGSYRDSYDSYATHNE

T3: DHX36 (Homo sapiens, UniProt Q9H2U1 1-1008)
T3 sequence: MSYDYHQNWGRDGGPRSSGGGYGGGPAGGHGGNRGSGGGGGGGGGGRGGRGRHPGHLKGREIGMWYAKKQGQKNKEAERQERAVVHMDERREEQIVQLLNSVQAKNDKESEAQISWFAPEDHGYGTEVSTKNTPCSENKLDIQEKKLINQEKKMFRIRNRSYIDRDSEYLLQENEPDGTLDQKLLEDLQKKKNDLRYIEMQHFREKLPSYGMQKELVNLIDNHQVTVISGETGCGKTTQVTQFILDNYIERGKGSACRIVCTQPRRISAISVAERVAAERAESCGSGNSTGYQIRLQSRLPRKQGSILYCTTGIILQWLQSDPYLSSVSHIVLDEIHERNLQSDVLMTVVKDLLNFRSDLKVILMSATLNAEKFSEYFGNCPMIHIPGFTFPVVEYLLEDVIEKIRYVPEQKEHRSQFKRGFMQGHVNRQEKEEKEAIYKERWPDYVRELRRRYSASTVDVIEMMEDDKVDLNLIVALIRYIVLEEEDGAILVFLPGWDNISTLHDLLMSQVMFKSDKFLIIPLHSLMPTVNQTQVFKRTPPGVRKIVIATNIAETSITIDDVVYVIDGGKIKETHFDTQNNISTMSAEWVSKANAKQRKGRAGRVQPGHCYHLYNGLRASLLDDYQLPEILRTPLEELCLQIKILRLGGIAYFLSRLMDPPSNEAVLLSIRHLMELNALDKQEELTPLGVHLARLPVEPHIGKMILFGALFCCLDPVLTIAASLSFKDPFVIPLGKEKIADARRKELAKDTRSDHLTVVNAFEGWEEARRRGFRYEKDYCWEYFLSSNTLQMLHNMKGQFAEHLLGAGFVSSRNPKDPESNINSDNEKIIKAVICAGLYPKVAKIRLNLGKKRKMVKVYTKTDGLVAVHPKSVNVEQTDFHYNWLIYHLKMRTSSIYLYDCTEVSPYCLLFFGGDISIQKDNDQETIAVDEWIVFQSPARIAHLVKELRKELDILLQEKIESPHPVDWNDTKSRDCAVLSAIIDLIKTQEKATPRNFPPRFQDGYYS

B1: NEAT1_ParasoR_ID38 (structured_RNA)
RNA: GGGAAUACCCGGGAACUGCCAAUAUGAUGGUGUACGAAGUUUCAGCGGUUUUCCGCUGAAGCUUCGUGCAC
B2: hsa-mir-191 (structured_RNA)
RNA: GGGAGAUUGACUACACGGAUCCUGACCGGGUGUACGAAGUUUCAGCCAGCUGUUGUCUCCAGAGCAUUCCAGCUGGCUGAAGCUUCGUGCAC
B3: hsa-mir-570 (structured_RNA)
RNA: GGGAACGCGCAGGUGCAAGGAUCACAUUGGUGUACGAAGUUUCAGCUUUCCCAUUAUUUUAAUUGCGAAGCUGAAGCUUCGUGCAC
B4: NEAT1_ParasoR_ID40 (structured_RNA)
RNA: GGGAGCUAAAGAGCGAUGCACGAAUAUGGGUGUACGAAGUUUCAGCCUGAGUUGUAAGAGUUCUUUAUAUAUUCUGGAUUCUAGACCCUUAUCAGGCUGAAGCUUCGUGCAC
B5: hsa-mir-3689d-2 (structured_RNA)
RNA: GGGAGUCGCCCGGUCAACUAAGAAACCAGGUGUACGAAGUUUCAGCCUCGCUGGGAGGUGUGCUAUCGUCUUCCCUGGGAGGCUGAAGCUUCGUGCAC
B6: hsa-mir-6508 (structured_RNA)
RNA: GGGAACAAUAUCACAACAAGCCGUGAUCGGUGUACGAAGUUUCAGCCCCACCCUGAGUUUUGGUGGGGCUGAAGCUUCGUGCAC
B7: hsa-mir-4796 (structured_RNA)
RNA: GGGACCACAUUGGAUCGACCGCAACUCGGGUGUACGAAGUUUCAGCUUUACUUUUGGCCUCAAGUCAUUGCAGUAAAGCUGAAGCUUCGUGCAC
B8: hsa-mir-363 (structured_RNA)
RNA: GGGAAUGGGACCCGUGGAUUUCUAAGACGGUGUACGAAGUUUCAGCAAUUUUGAUGAGUAUCAUAGGAGAAAAAUUGCUGAAGCUUCGUGCAC
B9: hsa-mir-6795 (structured_RNA)
RNA: GGGAAUGCGCAUAGCCAACGGAACUAACGGUGUACGAAGUUUCAGCAGGCUGUCUUCAUUCCCUCUUGACCACCCGCUGAAGCUUCGUGCAC
B10: NEAT1_ParasoR_ID37 (structured_RNA)
RNA: GGGAAGCAACAGAGUACGUCAAACAUUGGGUGUACGAAGUUUCAGCUGACUUUCUGGUUAUAAUCAUUCUAAUGAGUGUGAAGUAGCCUCUGGUGUCAGCUGAAGCUUCGUGCAC
B11: hsa-mir-6086 (structured_RNA)
RNA: GGGAUAACUGGAAAGUUCGAACUCCGACGGUGUACGAAGUUUCAGCAGAGAUGAGCAUAAAGUUUUUGCUGAAGCUUCGUGCAC

Tests used:
Assay in all cases: FOREST: bead pull-down of RNA structure library v1, barcode microarray; U1A/LIN28A: 20 mM HEPES pH 7.5, 80 mM KCl, 20 mM NaCl, 10% glycerol, 2 mM DTT, 0.1 ug/uL BSA, 4 C; BG4/CIRBP/DHX36: 10 mM Tris-HCl pH 7.5, 100 mM KCl (or LiCl),; high values mean tight binding
U1A = U1A (Homo sapiens, UniProt P09012)
LIN28A = molecular target: T1, LIN28A
CIRBP = molecular target: T2, CIRBP
DHX36 = molecular target: T3, DHX36

Binder | binding signal (U1A) | binding signal (LIN28A) | binding signal (CIRBP) | binding signal (DHX36)
B1 | 0.338 z-score | -1.6 z-score | -0.406 z-score | -0.751 z-score
B2 | 0.337 z-score | -0.862 z-score | -1.19 z-score | -0.0679 z-score
B3 | 0.33 z-score | -0.389 z-score | -0.897 z-score | -0.683 z-score
B4 | 0.328 z-score | 1.2 z-score | -0.474 z-score | 0.356 z-score
B5 | 1.92 z-score | -0.246 z-score | 0.112 z-score | 0.0807 z-score
B6 | 0.328 z-score | -0.724 z-score | -1.54 z-score | -1.03 z-score
B7 | 0.327 z-score | -1.5 z-score | -0.4 z-score | -0.893 z-score
B8 | 0.326 z-score | 1.69 z-score | -0.343 z-score | -0.548 z-score
B9 | 0.324 z-score | 0.676 z-score | 1.41 z-score | 0.373 z-score
B10 | 0.324 z-score | -0.781 z-score | -0.414 z-score | -0.941 z-score
B11 | 0.321 z-score | 0.697 z-score | -0.754 z-score | 0.327 z-score
